Laboratory results reported in paper PMC12260524, “Identification of a VPS29 isoform with restricted association to Retriever and Retromer accessory proteins through autoinhibition” (Proceedings of the National Academy of Sciences of the …, 2025).

Biological target: VPS35 (recombinant) (human) (UniProt Q96QK1)
Experiment: mass photometry; purified VPS29C-containing Retromer at 50 to 100 nM in protein buffer (50 mM Tris-HCl pH 7.5, 200 mM NaCl, 2 mM β-mercaptoethanol), Refeyn OneMP

Work on “VPS29C (recombinant, subunit of the VPS29C-containing Retromer) (from UniProt F8VXU5 1-214) (natural protein)” yielded a stoichiometry N of 1.
